Values quoted from earlier work, collected in patent US8073633B2 (The Invention Science Fund I, LLC, priority 2008, dated 2011).
Like-named read-outs stand apart in the source and are kept apart here.

Chains of the proteins cited; added tags and fusions are not shown.
UniProt P10635, whole entry: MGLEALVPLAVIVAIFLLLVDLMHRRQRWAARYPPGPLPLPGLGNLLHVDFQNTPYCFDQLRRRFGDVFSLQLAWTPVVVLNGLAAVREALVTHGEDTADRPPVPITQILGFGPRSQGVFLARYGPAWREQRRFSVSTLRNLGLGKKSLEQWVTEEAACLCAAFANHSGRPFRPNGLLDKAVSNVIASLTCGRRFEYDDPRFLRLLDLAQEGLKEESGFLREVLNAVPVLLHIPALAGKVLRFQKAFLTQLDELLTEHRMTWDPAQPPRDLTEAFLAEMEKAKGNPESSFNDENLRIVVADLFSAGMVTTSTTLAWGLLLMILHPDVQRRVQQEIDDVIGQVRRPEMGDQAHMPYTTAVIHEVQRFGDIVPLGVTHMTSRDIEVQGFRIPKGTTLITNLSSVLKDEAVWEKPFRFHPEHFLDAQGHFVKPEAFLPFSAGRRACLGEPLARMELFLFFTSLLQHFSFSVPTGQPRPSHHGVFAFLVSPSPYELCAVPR
UniProt P11712, whole entry: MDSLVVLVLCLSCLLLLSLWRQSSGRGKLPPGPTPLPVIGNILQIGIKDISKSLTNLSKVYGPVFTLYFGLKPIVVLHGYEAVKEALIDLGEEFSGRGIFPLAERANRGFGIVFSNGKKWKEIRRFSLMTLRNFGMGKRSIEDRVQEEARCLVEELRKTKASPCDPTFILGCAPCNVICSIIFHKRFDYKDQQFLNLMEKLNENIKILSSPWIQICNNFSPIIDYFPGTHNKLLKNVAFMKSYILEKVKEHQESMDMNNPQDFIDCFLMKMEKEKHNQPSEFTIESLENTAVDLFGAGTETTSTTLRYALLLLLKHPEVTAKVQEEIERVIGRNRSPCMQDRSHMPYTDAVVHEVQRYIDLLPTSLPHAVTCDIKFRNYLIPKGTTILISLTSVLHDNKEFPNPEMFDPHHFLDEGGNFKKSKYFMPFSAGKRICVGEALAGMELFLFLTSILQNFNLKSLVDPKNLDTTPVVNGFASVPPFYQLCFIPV
UniProt P05177, whole entry: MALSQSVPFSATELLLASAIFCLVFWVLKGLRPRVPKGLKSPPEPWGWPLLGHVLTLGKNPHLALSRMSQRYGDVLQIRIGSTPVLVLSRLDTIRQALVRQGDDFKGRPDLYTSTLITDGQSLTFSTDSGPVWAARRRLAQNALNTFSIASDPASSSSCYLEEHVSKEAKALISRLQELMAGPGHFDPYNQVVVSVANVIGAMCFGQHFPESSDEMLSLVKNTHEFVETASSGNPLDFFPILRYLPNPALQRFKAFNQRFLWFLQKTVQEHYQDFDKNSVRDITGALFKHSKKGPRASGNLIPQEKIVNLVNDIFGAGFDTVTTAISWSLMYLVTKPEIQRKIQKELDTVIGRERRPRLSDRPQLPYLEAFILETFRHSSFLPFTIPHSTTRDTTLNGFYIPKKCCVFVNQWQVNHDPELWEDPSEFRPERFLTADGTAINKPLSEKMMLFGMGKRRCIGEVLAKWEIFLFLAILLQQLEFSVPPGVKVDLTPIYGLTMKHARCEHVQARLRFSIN

Assays:
CYP2D6 [1] = molecular target: T1, CYP2D6 (Homo sapiens, UniProt P10635); design: in human liver microsomes, the specific CYP contributions to total N-demethylation activity vary between individuals; from tissue; host or cells: human liver microsomes from different individuals; conditions: liver microsomes
CYP2C9 = molecular target: T2, CYP2C9 (Homo sapiens, UniProt P11712); conditions: liver microsomes
T2 construct: in human liver microsomes, the specific CYP contributions to total N-demethylation activity vary between individuals; from tissue; host or cells: human liver microsomes from different individuals

CYP2D6 [2] = molecular target: T1, CYP2D6
CYP1A2 = CYP1A2 (Homo sapiens, UniProt P05177); conditions: liver microsomes

In the case of CN(C)CCOC(c1ccccc1)c1ccccc1 [diphenhydramine], the “% Total Diphenhydramine N-demethylation Activity, CYP2D6” value (CYP2D6 [1]; pooled) is listed as 48.4%, the “% Total Diphenhydramine N-demethylation Activity, CYP2D6” value (CYP2D6 [1]; subject HG30) is listed as 0% and the “% Total Diphenhydramine N-demethylation Activity, CYP2D6” value (CYP2D6 [1]; subject HG66) is listed as 81.3%. The “% Total Diphenhydramine N-demethylation Activity, CYP2D6” value (CYP2D6 [1]; subject HG89) was 4.6%, the “% Total Diphenhydramine N-demethylation Activity, CYP2D6” value (CYP2D6 [1]; subject HG112) was 12.1% and the “% Total Diphenhydramine N-demethylation Activity, CYP2C9” value (CYP2C9; pooled) was 27.5%. The “% Total Diphenhydramine N-demethylation Activity, CYP2C9” value (CYP2C9; subject HG30) was 45.9%, the “% Total Diphenhydramine N-demethylation Activity, CYP2C9” value (CYP2C9; subject HG66) was 13.4% and the “% Total Diphenhydramine N-demethylation Activity, CYP2C9” value (CYP2C9; subject HG89) was 32.1%. For the same molecule, the “% Total Diphenhydramine N-demethylation Activity, CYP2C9” value (CYP2C9; subject HG112) was 35.8%, the “specific activity in N-demethylation of diphenhydramine” value (CYP2D6 [2]) was 0.69 pmol/min/pmol P450 and the “% Total Diphenhydramine N-demethylation Activity, CYP1A2” value (CYP1A2; pooled) was 14.2%. For the same molecule, the “% Total Diphenhydramine N-demethylation Activity, CYP1A2” value (CYP1A2; subject HG30) was 31.6%, the “% Total Diphenhydramine N-demethylation Activity, CYP1A2” value (CYP1A2; subject HG66) was 4.1% and the “% Total Diphenhydramine N-demethylation Activity, CYP1A2” value (CYP1A2; subject HG89) was 36.0%. For the same molecule, the “% Total Diphenhydramine N-demethylation Activity, CYP1A2” value (CYP1A2; subject HG112) was 4.2%.
